# TDP1 cell noCPT: qHTS for Inhibitors of human tyrosyl-DNA phosphodiesterase 1 (TDP1): qHTS in cells in absence of CPT. DT40 Tdp1-/- hTDP1 cells, no CPT, ATP luminescence, 48 h. Potency, µM (top dose mostly 46.2 µM), most hits filed as inhibitors. 420,000 compounds, 15% hits; further: nearly all actives have a fitted effect of over 55% in size
#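 Luminescent ATP content (CellTiter-Glo) served as the growth readout. Knockout chicken DT40 cells expressing human TDP1 were exposed to compounds without camptothecin for a minimum 48 hr at 37 °C.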
# miR-21 FLuc: miR-21 reporter, rising signal | HeLa miR-21 FLuc reporter, luciferase, 48 h | Potency, µM (highest dose often 38.3 µM) | 340,000 tested, under 10 active | AID 2288; active = well fitted rising curve with a large enough effect; inconclusive = small, poorly fitted or top-dose-only effect; inactive = no such curve, though single readings can be large or run the other way;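 further: miR-21 action dims this reporter so a rising signal means less miR-21 action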
#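 Compounds were titrated across several concentrations (up to approximately 40 uM) and incubated 48 hours with HeLa miR-21-FLuc reporter cells (miR-21 target sequence downstream of FLuc, endogenous miR-21). Readout was firefly luciferase luminescence after lytic detection reagent.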
# DT40 TDP1 CPT: DT40-hTDP1 cell growth loss with CPT; chicken DT40 Tdp1-/-;hTDP1 cells + 20 nM CPT, ATP luminescence, 48 h; Potency, µM (doses to about 46.2 µM), hits mostly inhibitors; 420,000 compounds, 12% hits; AID 686979; further: nearly all actives have a fitted effect of over 55% in size
#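 Chicken DT40 Tdp1-/- cells complemented with human TDP1, 400 cells/well, exposed to compounds plus 20 nM camptothecin for at least 48 h at 37 C; viability read as ATP content by CellTiter-Glo luminescence.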
# uPA surface inh: inhibitors of cell surface uPA generation; 330,000 compounds, 0.31% hits; AID 540303; cell surface uPA generation assay, qHTS; Potency, µM (series often up to 38.3 µM), hits mostly inhibitors; active means well fitted inhibition curve with a large enough effect; inconclusive means small, poorly fitted or top-dose-only effect; inactive means no such curve, though single readings can be large or run the other way; tested in mouse RAW 264.7 cells; further: nearly all actives have a fitted effect of over 55% in size
# TDP1 block: inhibitors of human tyrosyl-DNA phosphodiesterase TDP1. Potency, µM (top dose mostly 130 µM), actives largely listed as inhibitors. 350,000 compounds, 0.28% hits. recombinant TDP1, AlphaScreen DNA substrate cleavage; further: nearly all actives have a fitted effect of over 40% in size
#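 Here, a 5' biotin and 3' phosphotyrosine-FITC DNA oligonucleotide reports Tdp1 activity: intact substrate bridges AlphaScreen beads, while cleavage leaves a 3' phosphate and drops signal. All incubations at room temperature.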
# Numbers stand for hits; . = inactive; ? = inconclusive; / = not tested or not shown; [ ] = another dose, or the depositor's remark. Sampled rows, rich in hits. Any-hit rate of the full collection: about 16%. Unless noted, the call rests on the fitted dose curve; in most records, active means well fitted curve in the direction sought with a large enough effect; inconclusive means small, poorly fitted or top-dose-only effect, or another doubt; inactive means no such curve, though single readings can be large; an effect the other way counts as inactive or inconclusive.
SMILES,TDP1 cell noCPT,miR-21 FLuc,DT40 TDP1 CPT,uPA surface inh,TDP1 block
CC(NC(=O)C(=O)NN=C1CCCCCC1)c1ccccc1 (stereo not given),.,.,.,.,.
CS(=O)(=O)NCCNc1cc(Cl)ccc1[N+](=O)[O-],.,.,.,.,.
CCNc1nnc(CSc2nc3ccccc3s2)s1,.,.,.,.,.
COc1ccc(OC)c(NC(=O)Cc2csc(NC(=O)Nc3ccccc3OC)n2)c1,20.6µM,/,?,.,/
COc1ccc(OC)c(-c2csc(NC(=O)Cc3ccccc3OC)n2)c1,?,.,.,/,.[0.0935 µM]
COc1ccccc1CCC(=O)OCc1csc(CC(=O)Nc2ccccc2C)n1,.,.,.,.,.
COc1ccccc1NC(=O)Cc1csc(NC(=S)Nc2ccccc2)n1,6.51µM,.,4.61µM,/,.
COc1ccc(NC(=O)Cc2csc(NC(=O)Nc3ccccc3OC)n2)c(OC)c1,13µM,/,?,.,/
CCN(CC(=O)Nc1ccccc1OC)Cc1csc(CC(=O)Nc2ccc(C)cc2)n1,16.4µM,/,25.9µM,.,.
Nc1c(-c2cccs2)cnn1-c1nc(-c2ccc(F)cc2)cs1,.,.,.,/,.
CN1CCN(CCOc2cccc(Cl)c2)CC1,.,.,.,.,.
O=C(NC(=S)N1CCN(C/C=C/c2ccccc2)CC1)c1ccc(Cl)nc1,14.6µM,.,23.1µM,.,.
O=C(NC(=S)N1CCN(Cc2ccccc2)CC1)c1cccnc1,20.6µM,.,16.4µM,.,.
CC(=O)c1ccc(NC(=O)c2nc(-c3ccc(Cl)cc3)n3c2CCCCC3)cc1,?,.,?,/,.
COc1ccccc1CNC(=O)CCNS(=O)(=O)c1ccc2[nH]c(=O)oc2c1,.,.,.,.,.
Cc1ccc(OCCn2cc(/C=N/NC(=O)c3ccncc3)c3ccccc32)cc1,23.1µM,.,?,.,.
COC(=O)N/N=C/c1cn(CC(C)COc2ccccc2)c2ccccc12 (stereo not given),23.1µM,?,?,.,.
Cc1ccc(OCCn2cc(C=O)c3ccccc32)cc1,?,.,?,.,.
Cc1ccc(OCCn2cc(/C=C3\C(=O)NN(c4ccccc4)C3=O)c3ccccc32)cc1,25.9µM,.,16.4µM,.,.
CCOC(=O)N/N=C/c1cn(CCCOc2ccc(C)cc2)c2ccccc12,20.6µM,.,?,.,.
CCOC(=O)N/N=C/c1cn(CCCOc2ccccc2)c2ccccc12,?,.,?,.,.
CCC(C)NC(=O)c1cc(Cl)c(NC(=O)C2=C(C)OCCS2)cc1OC (stereo not given),?,.,?,.,/
COC(=O)Cc1c(C)nc2nc(NCc3cccc([N+](=O)[O-])c3)[nH]n2c1=O,.,.,.,/,.
O=C(c1ccc(Cl)c(S(=O)(=O)NCc2ccco2)c1)N1CCN(c2ccccc2F)CC1,?,.,?,.,.
CCC(C)c1ccc(S(=O)(=O)N2CCN(C(=O)c3ccc(Cl)c(S(=O)(=O)N4CCOCC4)c3)CC2)cc1 (stereo not given),18.4µM,/,?,?,/
SMILES,TDP1 cell noCPT,miR-21 FLuc,DT40 TDP1 CPT,uPA surface inh,TDP1 block
CCOC(=O)N1CCN(C(=O)c2ccc(Cl)c(S(=O)(=O)N3CCOCC3)c2)CC1,.,.,.,.,.
COc1ccccc1N1CCN(C(=O)c2ccc(Cl)c(S(=O)(=O)NCc3ccco3)c2)CC1,5.01µM,.,5.62µM,.,.
COc1ccccc1N1CCN(C(=O)c2ccc(Cl)c(S(=O)(=O)N3CCOCC3)c2)CC1,?,.,25.9µM,.,.
O=C(C1CC1c1ccccc1)N1CCN(c2cccc(Cl)c2)CC1 (stereo not given),.,.,.,.,.
CCN(CC(=O)Nc1ccccc1C(F)(F)F)C(=O)CCc1nc2ccccc2c(=O)[nH]1,.,.,.,.,.
O=C(CNC(=O)c1cccnc1)N/N=C/c1ccc(O)cc1O,?,.,.,.,/
O=S(=O)(c1ccc(Cl)cc1)N1CCCc2ccccc21,.,.,.,.,/
CCn1c(=O)n(CC)c2cc(S(=O)(=O)N3CCc4ccccc43)ccc21,18.4µM,.,13µM,.,.
CC(=O)N1CCc2ccc(S(=O)(=O)N3CCc4ccccc43)cc21,5.17µM,.,20.6µM,?,.
